Source: patent US11028095B2, “Spiro-lactam and bis-spiro-lactam NMDA receptor modulators and uses thereof” (Aptinyx Inc., priority 2016, dated 2021)

Amino acid sequences for entries named in this document (tags omitted). Residues count along the entry.
UniProt Q12879, 23-1464 limits assumed: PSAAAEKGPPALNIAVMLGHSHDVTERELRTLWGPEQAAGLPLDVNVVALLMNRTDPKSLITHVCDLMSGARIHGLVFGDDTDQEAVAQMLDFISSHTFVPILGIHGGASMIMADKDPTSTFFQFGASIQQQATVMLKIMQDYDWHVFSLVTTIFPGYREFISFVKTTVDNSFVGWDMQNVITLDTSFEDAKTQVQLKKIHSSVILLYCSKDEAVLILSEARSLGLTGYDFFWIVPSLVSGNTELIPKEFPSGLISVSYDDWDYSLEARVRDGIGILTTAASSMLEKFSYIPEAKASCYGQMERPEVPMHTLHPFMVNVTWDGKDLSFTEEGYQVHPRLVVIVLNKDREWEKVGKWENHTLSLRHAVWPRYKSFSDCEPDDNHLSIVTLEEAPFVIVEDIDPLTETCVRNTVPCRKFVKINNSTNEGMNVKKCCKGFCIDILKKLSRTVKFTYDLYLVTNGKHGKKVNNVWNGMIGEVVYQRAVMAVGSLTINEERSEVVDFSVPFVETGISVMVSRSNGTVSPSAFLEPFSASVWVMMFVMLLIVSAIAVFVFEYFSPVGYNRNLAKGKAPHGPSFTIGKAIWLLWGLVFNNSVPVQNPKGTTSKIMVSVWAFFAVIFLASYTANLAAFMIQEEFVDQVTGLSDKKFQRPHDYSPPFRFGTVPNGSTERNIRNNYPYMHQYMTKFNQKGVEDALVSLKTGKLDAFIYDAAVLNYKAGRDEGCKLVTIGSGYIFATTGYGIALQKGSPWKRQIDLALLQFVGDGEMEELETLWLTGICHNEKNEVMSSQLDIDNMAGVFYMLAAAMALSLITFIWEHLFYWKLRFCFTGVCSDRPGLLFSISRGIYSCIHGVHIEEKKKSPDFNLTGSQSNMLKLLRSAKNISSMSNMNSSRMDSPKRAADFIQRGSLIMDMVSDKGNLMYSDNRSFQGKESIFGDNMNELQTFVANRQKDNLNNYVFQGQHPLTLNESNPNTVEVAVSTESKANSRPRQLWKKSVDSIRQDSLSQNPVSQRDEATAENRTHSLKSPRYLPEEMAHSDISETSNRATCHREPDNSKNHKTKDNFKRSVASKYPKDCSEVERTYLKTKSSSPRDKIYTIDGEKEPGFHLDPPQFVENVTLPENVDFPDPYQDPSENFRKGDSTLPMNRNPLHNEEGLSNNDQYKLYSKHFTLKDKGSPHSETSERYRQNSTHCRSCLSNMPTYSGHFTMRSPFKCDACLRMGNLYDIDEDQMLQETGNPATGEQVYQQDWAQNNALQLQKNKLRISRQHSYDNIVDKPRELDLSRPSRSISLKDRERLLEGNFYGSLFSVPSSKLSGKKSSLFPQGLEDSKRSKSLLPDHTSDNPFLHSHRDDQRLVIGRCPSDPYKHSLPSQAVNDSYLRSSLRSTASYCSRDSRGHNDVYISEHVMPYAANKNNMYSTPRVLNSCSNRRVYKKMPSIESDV
UniProt Q13224, 27-1484 limits assumed: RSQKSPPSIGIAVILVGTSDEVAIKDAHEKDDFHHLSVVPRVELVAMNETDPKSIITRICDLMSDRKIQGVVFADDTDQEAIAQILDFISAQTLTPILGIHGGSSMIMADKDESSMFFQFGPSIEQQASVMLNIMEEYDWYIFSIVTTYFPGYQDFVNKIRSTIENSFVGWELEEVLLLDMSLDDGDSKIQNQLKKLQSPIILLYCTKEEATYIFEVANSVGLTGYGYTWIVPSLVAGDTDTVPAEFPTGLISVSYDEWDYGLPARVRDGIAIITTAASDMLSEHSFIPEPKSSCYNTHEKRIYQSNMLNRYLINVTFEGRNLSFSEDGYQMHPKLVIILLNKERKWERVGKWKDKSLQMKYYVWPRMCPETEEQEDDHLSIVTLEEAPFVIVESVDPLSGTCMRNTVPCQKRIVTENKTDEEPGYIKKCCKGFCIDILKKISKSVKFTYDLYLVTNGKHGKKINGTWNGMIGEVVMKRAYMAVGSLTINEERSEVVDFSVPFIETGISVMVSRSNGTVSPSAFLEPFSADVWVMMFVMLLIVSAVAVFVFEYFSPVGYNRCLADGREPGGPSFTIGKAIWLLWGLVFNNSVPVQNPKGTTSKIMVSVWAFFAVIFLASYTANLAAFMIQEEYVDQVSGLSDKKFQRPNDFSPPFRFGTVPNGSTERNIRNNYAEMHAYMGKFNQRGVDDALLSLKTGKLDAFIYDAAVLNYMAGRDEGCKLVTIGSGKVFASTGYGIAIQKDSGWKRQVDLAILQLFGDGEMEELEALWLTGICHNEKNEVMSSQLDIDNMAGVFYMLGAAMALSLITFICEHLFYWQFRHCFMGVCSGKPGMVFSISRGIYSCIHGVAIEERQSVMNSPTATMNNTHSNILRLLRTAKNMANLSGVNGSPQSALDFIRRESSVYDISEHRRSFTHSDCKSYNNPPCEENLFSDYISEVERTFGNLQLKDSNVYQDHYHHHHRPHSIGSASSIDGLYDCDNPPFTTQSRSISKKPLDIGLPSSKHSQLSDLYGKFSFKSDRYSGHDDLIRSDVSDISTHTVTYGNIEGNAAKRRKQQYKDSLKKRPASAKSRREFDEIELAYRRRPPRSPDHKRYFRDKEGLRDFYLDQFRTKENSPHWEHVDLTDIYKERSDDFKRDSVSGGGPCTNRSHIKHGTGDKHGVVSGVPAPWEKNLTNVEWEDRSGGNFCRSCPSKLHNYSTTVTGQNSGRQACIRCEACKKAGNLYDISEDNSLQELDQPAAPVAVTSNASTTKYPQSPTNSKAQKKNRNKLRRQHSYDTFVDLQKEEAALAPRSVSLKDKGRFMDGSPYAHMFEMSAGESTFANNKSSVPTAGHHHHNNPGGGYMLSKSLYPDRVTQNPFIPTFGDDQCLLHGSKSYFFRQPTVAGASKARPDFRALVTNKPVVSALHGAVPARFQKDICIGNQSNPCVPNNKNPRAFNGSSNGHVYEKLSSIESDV
UniProt O15399, 28-1336 limits assumed: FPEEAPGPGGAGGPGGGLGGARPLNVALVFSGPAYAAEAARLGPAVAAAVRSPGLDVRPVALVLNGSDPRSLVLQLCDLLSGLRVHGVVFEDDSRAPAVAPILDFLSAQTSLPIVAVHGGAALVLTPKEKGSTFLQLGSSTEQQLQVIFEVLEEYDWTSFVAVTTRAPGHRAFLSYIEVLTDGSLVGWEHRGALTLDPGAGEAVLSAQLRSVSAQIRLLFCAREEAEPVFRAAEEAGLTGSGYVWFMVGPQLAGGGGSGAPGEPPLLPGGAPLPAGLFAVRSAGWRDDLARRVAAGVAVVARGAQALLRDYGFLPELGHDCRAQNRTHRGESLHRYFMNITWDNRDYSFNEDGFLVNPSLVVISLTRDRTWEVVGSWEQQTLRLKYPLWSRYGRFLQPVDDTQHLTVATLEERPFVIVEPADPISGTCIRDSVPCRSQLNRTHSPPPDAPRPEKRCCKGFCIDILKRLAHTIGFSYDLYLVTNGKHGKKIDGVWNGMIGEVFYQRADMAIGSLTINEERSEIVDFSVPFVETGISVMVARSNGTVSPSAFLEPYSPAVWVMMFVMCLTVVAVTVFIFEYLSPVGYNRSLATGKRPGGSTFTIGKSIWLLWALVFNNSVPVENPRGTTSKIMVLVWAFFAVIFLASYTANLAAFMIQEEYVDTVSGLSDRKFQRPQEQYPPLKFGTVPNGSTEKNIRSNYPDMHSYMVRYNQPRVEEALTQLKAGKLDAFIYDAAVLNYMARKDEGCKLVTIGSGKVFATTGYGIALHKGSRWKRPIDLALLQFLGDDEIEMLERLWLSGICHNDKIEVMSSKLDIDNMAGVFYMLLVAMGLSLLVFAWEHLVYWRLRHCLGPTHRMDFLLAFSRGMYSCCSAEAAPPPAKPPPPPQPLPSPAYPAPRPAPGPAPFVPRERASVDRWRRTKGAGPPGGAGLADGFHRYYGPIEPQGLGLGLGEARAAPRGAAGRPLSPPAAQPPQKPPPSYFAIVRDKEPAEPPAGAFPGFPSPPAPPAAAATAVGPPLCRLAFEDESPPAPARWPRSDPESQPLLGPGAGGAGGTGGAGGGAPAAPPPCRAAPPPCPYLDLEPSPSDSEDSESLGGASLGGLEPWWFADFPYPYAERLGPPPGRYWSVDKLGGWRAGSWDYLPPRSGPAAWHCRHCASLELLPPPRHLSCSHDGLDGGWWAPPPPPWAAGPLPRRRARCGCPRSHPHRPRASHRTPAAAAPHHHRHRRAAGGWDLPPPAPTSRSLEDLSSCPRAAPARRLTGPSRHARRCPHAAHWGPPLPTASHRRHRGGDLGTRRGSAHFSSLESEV
UniProt Q14957, 20-1233 limits assumed: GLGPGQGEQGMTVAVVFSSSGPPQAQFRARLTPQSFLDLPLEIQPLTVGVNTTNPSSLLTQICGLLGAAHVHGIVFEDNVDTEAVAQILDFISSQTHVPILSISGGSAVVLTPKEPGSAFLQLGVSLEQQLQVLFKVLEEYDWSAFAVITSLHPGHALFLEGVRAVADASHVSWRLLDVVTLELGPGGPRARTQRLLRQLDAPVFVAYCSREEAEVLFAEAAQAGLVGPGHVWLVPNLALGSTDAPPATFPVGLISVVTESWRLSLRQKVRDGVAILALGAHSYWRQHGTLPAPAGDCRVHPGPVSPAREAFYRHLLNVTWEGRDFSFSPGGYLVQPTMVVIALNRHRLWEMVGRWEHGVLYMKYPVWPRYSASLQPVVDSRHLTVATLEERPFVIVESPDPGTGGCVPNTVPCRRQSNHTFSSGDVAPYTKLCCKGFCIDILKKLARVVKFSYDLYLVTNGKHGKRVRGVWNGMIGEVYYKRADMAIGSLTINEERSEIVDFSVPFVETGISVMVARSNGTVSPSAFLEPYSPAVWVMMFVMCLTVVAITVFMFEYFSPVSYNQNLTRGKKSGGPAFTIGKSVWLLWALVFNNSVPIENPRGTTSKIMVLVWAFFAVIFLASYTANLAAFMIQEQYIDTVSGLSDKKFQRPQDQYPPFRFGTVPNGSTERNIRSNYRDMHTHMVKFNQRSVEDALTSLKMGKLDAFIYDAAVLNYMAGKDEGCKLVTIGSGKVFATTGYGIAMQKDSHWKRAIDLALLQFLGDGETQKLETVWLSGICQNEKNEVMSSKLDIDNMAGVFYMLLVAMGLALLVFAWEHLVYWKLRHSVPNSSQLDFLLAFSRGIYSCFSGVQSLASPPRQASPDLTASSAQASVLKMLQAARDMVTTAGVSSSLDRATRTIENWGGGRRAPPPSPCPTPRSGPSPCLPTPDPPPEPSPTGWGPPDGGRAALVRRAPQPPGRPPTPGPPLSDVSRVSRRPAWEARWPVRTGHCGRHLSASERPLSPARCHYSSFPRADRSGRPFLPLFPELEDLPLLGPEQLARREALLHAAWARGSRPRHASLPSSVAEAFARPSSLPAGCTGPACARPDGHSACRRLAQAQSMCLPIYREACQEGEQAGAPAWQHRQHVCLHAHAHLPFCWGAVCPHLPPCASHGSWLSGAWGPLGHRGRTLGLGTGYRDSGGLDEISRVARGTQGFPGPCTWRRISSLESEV

Legend:
[1] = molecular target: NMDAR2A expressing HEK cell membranes (Homo sapiens, UniProt Q12879); experiment: NMDAR agonist assay, [3H]MK-801 binding, NMDAR2A; conditions: 50 μM glutamate; for EC50: read-out: NMDAR2A: log EC50 (converted), [3H]MK-801 binding
[2] = molecular target: NMDAR2B expressing HEK cell membranes (Homo sapiens, UniProt Q13224); experiment: NMDAR agonist assay, [3H]MK-801 binding, NMDAR2B; conditions: 50 μM glutamate; for EC50: read-out: NMDAR2B log EC50 (converted), [3H]MK-801 binding
[3] = IV pharmacokinetics; conditions: Sprague Dawley rats, 2 mg/kg, normal saline
Protocol: Sprague Dawley rats were dosed intravenously using a normal saline formulation containing 2 mg/kg of the compounds identified in the below table. The table below summarizes the results of the IV pharmacokinetics.

[4] = Oral pharmacokinetics (plasma, brain, CSF); conditions: Sprague Dawley rats, per os, 10 mg/kg
Protocol: In another experiment, Sprague Dawley rats were dosed per os using a normal saline formulation containing 10 mg/kg of the compounds identified in the table below. Plasma, brain, and CSF samples were analyzed at various time points over a 24 hour period. The table below summarizes the results of the oral pharmacokinetics.

[5] = molecular target: NMDAR2D expressing HEK cell membranes (Homo sapiens, UniProt O15399); experiment: NMDAR agonist assay, [3H]MK-801 binding, NMDAR2D; conditions: 50 μM glutamate
[6] = molecular target: NMDAR2C expressing HEK cell membranes (Homo sapiens, UniProt Q14957); experiment: NMDAR agonist assay, [3H]MK-801 binding, NMDAR2C; conditions: 50 μM glutamate

SMILES	NMDAR2A: % maximal [3H]MK-801 binding relative to 1 mM glycine [1]	EC50 [1]	NMDAR2B: % maximal [3H]MK-801 binding relative to 1 mM glycine [2]	EC50 [2]	AUClast [3]	C0 [3]	Cl [3]	T1/2 [3]	Vss [3]	% F [4]	AUClast [4]	CSF Cmax ([4]; CSF)	Brain Cmax ([4]; brain)	Tmax ([4]; normal saline)	Cmax ([4]; plasma)	NMDAR2D: % maximal [3H]MK-801 binding relative to 1 mM glycine ([5]; relative to 1 mM glycine)	EC50 ([5]; read-out: NMDAR2D column B: log EC50 (converted), [3H]MK-801 binding)	NMDAR2C A: % maximal [3H]MK-801 binding relative to 1 mM glycine ([6]; relative to 1 mM glycine)	EC50 ([6]; read-out: NMDAR2C column B: log EC50 (converted), [3H]MK-801 binding)
CC(C)(C)OC(=O)N1CC2(CNC2=O)CC12CNC2=O (single isomer, unassigned) [AY-2]	− (−=0)	> 100 nM	+ (<100%=+)	< 1 nM															
CC(C)(C)OC(=O)N1CC2(CNC2=O)CC12CNC2=O (single isomer, unassigned) [AY-3]	+ (<100%=+)	< 1 nM	+ (<100%=+)	< 1 nM	3552.4 ng·h/mL	3159.4 ng/mL	9.4 mL/min/kg	6.11 h	1.03 L/kg	50%	8863.3 ng·h/mL	277 ng/mL	125.3 ng/mL	49.8 min	2716 ng/mL	+ (<100%=+)	< 1 nM	− (−=0)	> 100 nM
CC(C)(C)OC(=O)N1CC2(CNC2=O)CC12CNC2=O (single isomer, unassigned) [AY-4]	+ (<100%=+)	< 1 nM	+ (<100%=+)																
